Source: PubChem BioAssay
Shown are actives, neighbours in structure and some others; about 16% of the full set was active somewhere.
miR-21 reporter – raises the signal of a miR-21 reporter | HeLa miR-21 FLuc reporter, luciferase, 48 h | Potency, µM (doses to about 38.3 µM), for the others: at the highest dose reporter change, positive = more light | 340,000 tested, under 10 active | AID 2288; active = well fitted rising curve with a large enough effect; inconclusive = small, poorly fitted or top-dose-only effect; inactive = no such curve, though single readings can be large or run the other way;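 also: % of control where 0% means no effect; miR-21 action dims this reporter so a rising signal means less miR-21 action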
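Luminescence from a firefly luciferase reporter carrying a miR-21 binding site downstream, stably expressed under a CMV promoter in HeLa cells that make miR-21 endogenously, reports miRNA modulation after 48 h compound exposure up to approximately 40uM final.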
DT40 TDP1 CPT – DT40-hTDP1 cell growth loss with CPT. actives 12% (n = 420,000). chicken DT40 Tdp1-/-;hTDP1 cells + 20 nM CPT, ATP luminescence, 48 h. Potency, µM (highest dose often 46.2 µM), inactives show top-dose activity change, negative = growth inhibition, hits mostly inhibitors; note: potency is the fitted concentration of half-maximal effect; % is set by controls: 0 for no effect and ±100 for the full control effect; nearly all actives have a fitted effect of over 55% in size
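Chicken DT40 Tdp1-/- cells complemented with human TDP1, 400 cells/well, exposed to compounds plus 20 nM camptothecin for at least 48 h at 37 C; viability read as ATP content by CellTiter-Glo luminescence.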
DT40 TDP1 no CPT – qHTS for Inhibitors of human tyrosyl-DNA phosphodiesterase 1 (TDP1): qHTS in cells in absence of CPT; DT40 Tdp1-/- hTDP1 cells, no CPT, ATP luminescence, 48 h; Potency, µM (doses to about 46.2 µM), for inactives: top-dose activity change, negative = growth inhibition, hits mostly inhibitors; actives 15% (n = 420,000); note: potency is the fitted concentration of half-maximal effect; % is set by controls: 0 for no effect and ±100 for the full control effect; nearly all actives have a fitted effect of over 55% in size
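Cells were dispensed at 400 per well, compounds added by pin tool, plates incubated ≥48 hr at 37 °C, then CellTiter-Glo added for 30 min at room temperature before luminescence reading. Line: DT40 Tdp1-/- complemented with hTDP1; camptothecin omitted.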
uPA generation – cell surface uPA generation inhibition; actives 0.31% (n = 330,000); Potency, µM (top dose mostly 38.3 µM), without a hit: top-dose activity change, negative = inhibition, actives largely listed as inhibitors; cell surface uPA generation assay, qHTS; AID 540303; active = well fitted inhibition curve with a large enough effect; inconclusive = small, poorly fitted or top-dose-only effect; inactive = no such curve, though single readings can be large or run the other way; tested in mouse RAW 264.7 cells; note: potency is the fitted concentration of half-maximal effect; % is set by controls: 0 for no effect and ±100 for the full control effect; nearly all actives have a fitted effect of over 55% in size
TDP1 block – blocks human tyrosyl-DNA phosphodiesterase 1; recombinant TDP1, AlphaScreen DNA substrate cleavage; actives 0.28% (n = 350,000); Potency, µM (doses to about 130 µM), without a hit: top-dose activity change, negative = inhibition, actives largely listed as inhibitors; Q9NUW8; AID 485290; note: potency is the fitted concentration of half-maximal effect; % is set by controls: 0 for no effect and ±100 for the full control effect; nearly all actives have a fitted effect of over 40% in size
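Recombinant E. coli-expressed Tdp1 (1 nM) preincubated with compound 15 min at RT, then 5'-biotin/3'-phosphotyrosine-FITC DNA substrate (15 nM) added for 5 min. AlphaScreen beads (10 ug/ml) added, 10 min RT; tyrosine-FITC cleavage read as signal loss.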
* marks the source's active call; other numbers are inactive results; ? = inconclusive; . = no result. Unless noted, calls come from the whole dose curve; as a rule, active = well fitted curve in the direction sought with a large enough effect; inconclusive = small, poorly fitted or top-dose-only effect, or another doubt; inactive = no such curve, though single readings can be large; an effect the other way counts as inactive or inconclusive.

SMILES	miR-21 reporter	DT40 TDP1 CPT	DT40 TDP1 no CPT	uPA generation	TDP1 block
CSc1nc(N(C)NC(=O)c2ccc(Cl)cc2)c2ccccc2n1	22%	0.26µM*	0.33µM*	-6%	8%
CC(C)(CNC(=O)c1ccc(NS(=O)(=O)c2ccc(F)c(F)c2)cc1)N1CCOCC1	.	-9%	-7%	4%	-2%
Cn1c(=O)n(C)c2cc([N+](=O)[O-])c(N3CCN(S(C)(=O)=O)CC3)cc21	-5%	27%	-24%	-16%	1%
COc1cc(C(=O)N2CCN(c3ccccc3OC)CC2)c([N+](=O)[O-])cc1OC	10%	-24%	?	-8%	-1%
Cn1c(=O)n(C)c2cc([N+](=O)[O-])c(N3CCN(C(=O)c4ccccc4Br)CC3)cc21	19%	?	21µM*	-6%	5%
Cn1c(=O)n(C)c2cc([N+](=O)[O-])c(N3CCN(C(=O)c4ccccc4)CC3)cc21	-4%	15µM*	18µM*	-12%	1%
O=C(c1ccccc1Br)N1CCN(c2ccc([N+](=O)[O-])c(N3CCOCC3)c2)CC1	4%	-16%	-16%	-20%	5%
Cn1c(=O)n(C)c2cc([N+](=O)[O-])c(N3CCN(C(=O)c4ccccc4Cl)CC3)cc21	21%	21µM*	16µM*	-20%	5%
Cn1c(=O)n(C)c2cc([N+](=O)[O-])c(N3CCN(C(=O)C(C)(C)C)CC3)cc21	1%	16µM*	13µM*	-2%	-6%
CN(NC(=O)CN1C(=O)c2ccccc2C1=O)C1=NS(=O)(=O)c2ccccc21	2%	3%	-16%	1%	1%
O=C(O)c1cccc(Cn2c(Cl)c(/C=N/NC(=O)c3ccccc3O)sc2=O)c1	-9%	1%	6%	-3%	-5%
O=C(Nc1cccc(F)c1)N1CC2(CCN(C(=O)c3ccncc3)CC2)C1	.	?	-9%	.	.
CC1(C)CC(=O)C=C(c2cn[nH]n2)C1	.	0%	-21%	.	.
Cc1nnc(SC(C)C(=O)Nc2ccc(S(=O)(=O)N3CCCCCC3)cc2)s1 (configuration not stated)	-8%	-15%	-28%	.	2%
C=CCc1cccc2cc(C(=O)Nc3ccc(S(=O)(=O)Nc4nnc(CC)s4)cc3)c(=O)oc12	-5%	-13%	-22%	5%	50µM*

Reprinted from the part before: 2 compounds, followed by the next part.
SMILES	miR-21 reporter	DT40 TDP1 CPT	DT40 TDP1 no CPT	uPA generation	TDP1 block
Cc1nnc(SC(C)C(=O)Nc2ccc(S(=O)(=O)N3CCCCCC3)cc2)s1 (configuration not stated)	-8%	-15%	-28%	.	2%
C=CCc1cccc2cc(C(=O)Nc3ccc(S(=O)(=O)Nc4nnc(CC)s4)cc3)c(=O)oc12	-5%	-13%	-22%	5%	50µM*
C=CCc1cccc2cc(C(=O)Nc3ccc(CC(=O)O)cc3)c(=O)oc12	11%	9%	-5%	-9%	50µM*
CCOC(=O)CSc1nc2sc3c(c2c(=O)n1C1CCCCC1)CCN(C)C3	-11%	?	29µM*	-11%	-1%
CCOC(=O)CSc1nc2sc3c(c2c(=O)n1-c1ccc(OCC)cc1)CCN(C)C3	0%	?	23µM*	7%	.
CCn1c(SCC(N)=O)nc2sc3c(c2c1=O)CCN(C)C3	6%	23µM*	13µM*	5%	0%
CCn1c(SCC(=O)N2CCOCC2)nc2sc3c(c2c1=O)CCCC3	-2%	?	18µM*	-5%	6%
CCCNC(=O)COc1coc(CN2CCN(c3ccccc3OC)CC2)cc1=O	5%	3%	-1%	-4%	3%
Cc1ccccc1CNCc1ccc2c(c1)OCO2	-3%	-16%	-13%	2%	.
COCCNC(=O)CN(Cc1ccc(Cl)cc1)S(C)(=O)=O	2%	4%	7%	.	3%
CCCN(c1ccccc1F)S(=O)(=O)c1ccc2c(c1)C(C)(C)C(=O)N2C	7%	?	?	.	5%
CC(Sc1nc2sc3c(c2c(=O)n1-c1ccccc1)CCCC3)C(=O)O (configuration not stated)	-1%	-18%	9%	-16%	-1%
CCn1c(SC(C)C(=O)O)nc2sc3c(c2c1=O)CCC3 (configuration not stated)	-10%	-13%	-5%	-5%	11µM*
C=CCSc1nc2sc3c(c2c(=O)n1-c1ccccc1)CCN(C)C3	-8%	?	-17%	-5%	.
COC(=O)CSc1nnc2n(C3CCCCC3)c(=O)c3c4c(sc3n12)CCCC4	-3%	29µM*	?	-6%	4%
C=C(C)CSc1nc2sc3c(c2c(=O)n1-c1ccc(C)cc1)CCN(C)C3	13%	18µM*	12µM*	-11%	.
CCc1nc2sc3c(c2c(=O)n1NC(=O)CCl)CCCC3	3%	21µM*	?	.	5%

4 entries from above, in markdown:
| Compound | miR-21 reporter | DT40 TDP1 CPT | DT40 TDP1 no CPT | uPA generation | TDP1 block |
| --- | --- | --- | --- | --- | --- |
| CC(C)(CNC(=O)c1ccc(NS(=O)(=O)c2ccc(F)c(F)c2)cc1)N1CCOCC1 | . | -9% | -7% | 4% | -2% |
| Cn1c(=O)n(C)c2cc([N+](=O)[O-])c(N3CCN(S(C)(=O)=O)CC3)cc21 | -5% | 27% | -24% | -16% | 1% |
| COc1cc(C(=O)N2CCN(c3ccccc3OC)CC2)c([N+](=O)[O-])cc1OC | 10% | -24% | ? | -8% | -1% |
| Cn1c(=O)n(C)c2cc([N+](=O)[O-])c(N3CCN(C(=O)c4ccccc4Br)CC3)cc21 | 19% | ? | 21µM* | -6% | 5% |

(continued)
SMILES	miR-21 reporter	DT40 TDP1 CPT	DT40 TDP1 no CPT	uPA generation	TDP1 block
O=c1[nH][nH]c2c1[C@H](c1ccc(Cl)cc1)O[C@H](C1CC1)C2	.	?	-26%	.	.
CCN(CCN1CCCC1)C(=O)c1cc(COc2ccccc2SC)on1	-1%	-24%	-21%	-2%	5%
CN(CC1COc2ccccc2O1)C(=O)CCNS(=O)(=O)c1ccc(F)c(Cl)c1 (configuration not stated)	.	-27%	?	.	.
CCN1CCN(C(CC(C)C)c2nnnn2CS(=O)(=O)c2ccc(C)cc2)CC1 (configuration not stated)	-6%	8%	-18%	4%	.
COC(=O)c1cn(NC(=O)c2ccc([N+](=O)[O-])cc2Cl)c(=O)c2ccccc12	2%	7%	-4%	-6%	-3%
CN(C)c1ccc(/C=N/NC(=O)c2ccc(NC(=O)c3ccccc3)cc2)cc1	-5%	23%	?	1%	.
COc1c(Br)cc(Br)cc1/C=N/NC(=O)c1ccncc1	6%	?	?	4%	5%
CCNC(=S)N/N=C/c1cc(Br)cc(Br)c1OC	3%	5.2µM*	6.5µM*	.	5%
CN(C)c1ccc(C(=O)N/N=C/c2cc(Br)cc(Br)c2O)cc1	-2%	6.5µM*	12µM*	7%	.
CCOc1cc(Br)cc(/C=N/NC(=O)c2cccnc2)c1O	12%	0.46µM*	0.37µM*	-6%	.
COc1c(Br)cc(Br)cc1/C=N/NC(=O)c1cccnc1	27%	18µM*	?	?	.
Cc1nc(CNC(=O)c2cc(COc3ccc(F)cc3Cl)on2)cs1	-13%	?	?	-2%	3%
COc1ccc(OC)c(N(CC(=O)O)S(=O)(=O)c2ccc(OC)c(OC)c2)c1	-2%	2%	-4%	13%	2%
Cn1cc(/C=N\NC(=O)c2cccs2)c2ccccc21	-43%	-2%	12%	-5%	2%
Cc1ccc(-c2nc(-c3cc4cccc(OCc5cccc(C)c5)c4oc3=O)no2)cc1	-3%	?	9.2µM*	.	6%
COc1ccccc1-n1c(=O)oc2ccc(Cl)cc2c1=O	11%	?	16µM*	-13%	1%
OC1COC(c2ccccc2)OC1C(O)C1OC(c2ccccc2)OCC1O (configuration not stated)	.	1%	-22%	0%	.
